Results reported in patent US11046672B2, “Indolinones compounds and their use in the treatment of fibrotic diseases” (RESPIVERT LIMITED, priority 2015, dated 2021).

Chains of the proteins cited; added tags and fusions are not shown. Residues count along the entry.
UniProt P09619, 33-1106 limits assumed: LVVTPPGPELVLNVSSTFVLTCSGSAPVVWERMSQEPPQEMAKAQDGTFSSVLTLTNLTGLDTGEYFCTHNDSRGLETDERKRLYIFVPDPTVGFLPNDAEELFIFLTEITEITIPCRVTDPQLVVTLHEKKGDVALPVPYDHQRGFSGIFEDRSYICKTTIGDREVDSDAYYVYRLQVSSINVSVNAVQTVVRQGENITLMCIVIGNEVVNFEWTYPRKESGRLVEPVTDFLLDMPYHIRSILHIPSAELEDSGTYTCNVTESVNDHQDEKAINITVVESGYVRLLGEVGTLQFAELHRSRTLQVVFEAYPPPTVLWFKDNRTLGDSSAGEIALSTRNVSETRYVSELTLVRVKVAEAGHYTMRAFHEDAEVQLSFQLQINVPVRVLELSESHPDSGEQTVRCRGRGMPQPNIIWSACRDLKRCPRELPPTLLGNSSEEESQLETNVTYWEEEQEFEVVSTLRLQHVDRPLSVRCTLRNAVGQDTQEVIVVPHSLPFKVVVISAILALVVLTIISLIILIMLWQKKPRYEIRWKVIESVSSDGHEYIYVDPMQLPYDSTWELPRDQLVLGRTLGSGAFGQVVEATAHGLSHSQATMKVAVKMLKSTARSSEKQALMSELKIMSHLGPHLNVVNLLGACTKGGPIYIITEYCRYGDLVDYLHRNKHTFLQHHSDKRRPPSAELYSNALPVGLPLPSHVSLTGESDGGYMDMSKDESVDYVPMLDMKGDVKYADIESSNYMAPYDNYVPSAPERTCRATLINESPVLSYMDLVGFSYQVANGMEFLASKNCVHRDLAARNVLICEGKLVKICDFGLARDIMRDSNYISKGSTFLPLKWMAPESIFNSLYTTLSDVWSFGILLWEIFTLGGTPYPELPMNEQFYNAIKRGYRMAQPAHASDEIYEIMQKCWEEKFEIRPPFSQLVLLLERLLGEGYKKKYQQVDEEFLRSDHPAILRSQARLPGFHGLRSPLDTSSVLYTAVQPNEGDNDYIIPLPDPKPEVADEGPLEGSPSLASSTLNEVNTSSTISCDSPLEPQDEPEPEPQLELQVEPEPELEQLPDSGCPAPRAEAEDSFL

Key:
MRC5 cells = conditions: MTT
PDGFRβ [1] = biological target: T1, PDGFRβ (Homo sapiens (Human), UniProt P09619); assay: PDGF-BB induced phosphorylation of PDGFRβ in fibroblasts (MRC5 cells, HTRF); format: cell-based; conditions: read-out: PDGFBB-induced PDGFRβ phosphorylation in MRC5 cells (IC50), n = 1 unless otherwise indicated
PDGFRβ [2] = biological target: T1, PDGFRβ

COC(=O)c1ccc2c(c1)NC(=O)/C2=C(\Nc1ccc(C(=O)NOCCN(C)C)c(C)c1)c1ccccc1
Cell viability at 100 nM (%) (MRC5 cells; 100 nM): 110.2% | Cell viability at 300 nM (%) (MRC5 cells; 300 nM): 98.8% | Cell viability at 1000 nM (%) (MRC5 cells; 1000 nM): 61.2% | pIC50 (PDGFRβ [1]): 8.36 | % Recovery (PAMPA permeability assay; PAMPA, donor and acceptor compartments): 91% | Mean Papp (PAMPA permeability assay; pH 7, 10 μM, 5 hr): 0.0138 10^−6 cm s^−1 | pKi (PDGFRβ [2]): 7.94

pIC50, pKi: −log10 of the molar value.
